Apparent affinities of Ab-14 variants for a coronavirus HR2 peptide

Source: Engelhart et al. 2022 (doi:10.1038/s41597-022-01779-4), MIT Lincoln Laboratory and A-Alpha Bio; data file from the FLAb repository.

Target: peptide PDVDLGDISGINAS, taken from heptad repeat 2 (HR2) of SARS-CoV-2 spike.

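The parent was found by panning a naive human phage display library on the peptide. AAYL49 was designed without a model: most single CDR substitutions and a random sample of double and triple ones. In AlphaSeq, yeast of one mating type display the scFv and yeast of the other type display the target. Binding brings cells together so that they mate, and sequencing counts the barcode pairs among the diploids. A regression on co-assayed BCL2-family reference pairs converts the normalised counts of each replicate to an apparent Kd. Each pool was mated in three replicate cultures.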

The variants keep the light chain, the linker and the frameworks of Ab-14 (scFv order VH, a (GGGGS)3 linker, VL).
VH: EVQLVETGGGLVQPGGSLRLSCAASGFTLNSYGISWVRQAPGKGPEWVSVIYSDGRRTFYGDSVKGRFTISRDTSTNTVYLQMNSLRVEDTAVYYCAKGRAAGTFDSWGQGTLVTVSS
VL: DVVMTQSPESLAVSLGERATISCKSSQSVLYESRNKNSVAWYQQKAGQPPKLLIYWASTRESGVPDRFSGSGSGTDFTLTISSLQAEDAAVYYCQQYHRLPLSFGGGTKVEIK

Positions count from residue 1 of the parent VH; L29Y puts Y in place of L.
Scale: log10 of Kd in nM, estimated from mating counts; low values are strong binders.
An entry "nd" has no value in the source: the pair was not observed among the diploids in that replicate. This suggests poor binding but is not conclusive.
In this assay the parent's reference entry averaged 0.65; its copy inside this library read 4.11 (one replicate of three).
As a blank, each scFv also met three strains without target: over library AAYL49, 15% of these pairings were detected, typically at 4.06 and seldom below 2.83. For each scFv, signals with the empty controls are counted beside the result, with their mean in brackets.

| changes | replicates, log10 nM | empty controls |
|---|---|---|
| L29Y/Y60G/R100L | 3.72 / 3.97 / nd | 2 of 9 (4.49) |
| I51G/R57C/A101V | nd / nd / nd | 0 of 9 |
| I51T/Y52H/S107D | nd / nd / 3.65 | 1 of 9 (3.98) |
| R100P/A102L | nd / nd / 4.14 | 1 of 9 (3.70) |
| S53K/A102E/D106M | 4.20 / 5.49 / nd | 6 of 9 (4.32) |
| L29G/D54P/A102T | nd / nd / nd | 0 of 9 |
| T28N/S35F/S53M | nd / nd / nd | 0 of 9 |
| V50R/S63A/G103S | nd / nd / nd | 0 of 9 |
| G26S/I34C/S63A | nd / nd / nd | 0 of 9 |
| K65W/D106S | 1.38 / 1.38 / 2.77 | 1 of 9 (4.22) |
| Y32G/V50Y/R56M | 4.70 / 3.13 / 4.93 | 2 of 9 (4.19) |
| F27P/S53R/G103I | nd / 2.03 / nd | 0 of 9 |
| S35L/A102Y | nd / 3.63 / nd | 0 of 9 |
| R56T/G61H/K65F | nd / nd / nd | 0 of 9 |
| S35R/A102V/D106Q | nd / nd / nd | 0 of 9 |
| I51A/R56V/Y60T | nd / nd / nd | 1 of 9 (3.15) |
| V50W/D62N/F105G | 3.51 / nd / nd | 0 of 9 |
| S53G/V64M/R100C | nd / nd / nd | 0 of 9 |
| Y60M/T104L/S107E | nd / nd / nd | 0 of 9 |
| G55I/R100P/D106K | nd / nd / nd | 3 of 9 (2.59) |
| L29Y/S107Q | 5.59 / nd / 3.05 | 0 of 9 |
| G26V/V64D/F105C | nd / 3.39 / nd | 0 of 9 |
| D62I/K65R/F105C | nd / nd / 3.38 | 3 of 9 (3.55) |
| T58C/D62L/A101P | 2.41 / nd / nd | 2 of 9 (3.17) |
| I34L/K65L | 4.26 / 3.37 / 3.59 | 4 of 9 (4.03) |
| R56W/D62Y/A101Q | 2.37 / 1.99 / 2.19 | 0 of 9 |
| G55T/F59S/K65P | nd / 5.47 / 4.83 | 4 of 9 (4.68) |
| I51D/G61D | nd / nd / 3.77 | 0 of 9 |
| L29M/R56V/S63W | nd / nd / nd | 1 of 9 (1.88) |
| S31N/I51E/T104N | nd / 4.73 / nd | 5 of 9 (3.84) |
| I51A/F59W/G61E | nd / nd / nd | 0 of 9 |
| N30G/S31M/G61H | nd / nd / nd | 0 of 9 |
| F59N/S63V/A101K | nd / nd / nd | 2 of 9 (2.76) |
| G33W/S53Y/V64M | nd / nd / nd | 0 of 9 |
| V50E/A102D | nd / 3.28 / nd | 1 of 9 (1.98) |
| A101W | 0.92 / 1.15 / 1.09 | 1 of 9 (5.73) |
| S35L/G103Q | nd / nd / 3.51 | 1 of 9 (3.05) |
| S31W/G33R/A102F | 5.59 / 4.32 / 5.78 | 4 of 9 (4.72) |
| L29R/F59D/T104R | nd / nd / nd | 0 of 9 |

Repeated from above, the 6 best binders with a signal in all replicates:

| changes | replicates, log10 nM | empty controls |
|---|---|---|
| A101W | 0.92 / 1.15 / 1.09 | 1 of 9 (5.73) |
| K65W/D106S | 1.38 / 1.38 / 2.77 | 1 of 9 (4.22) |
| R56W/D62Y/A101Q | 2.37 / 1.99 / 2.19 | 0 of 9 |
| I34L/K65L | 4.26 / 3.37 / 3.59 | 4 of 9 (4.03) |
| Y32G/V50Y/R56M | 4.70 / 3.13 / 4.93 | 2 of 9 (4.19) |
| S31W/G33R/A102F | 5.59 / 4.32 / 5.78 | 4 of 9 (4.72) |